Tested on: hypersensitivity following acute fentanyl exposure
Settings: rat, in vivo

Compound: O=C(c1ccccc1)c1ccc2n1CCC2C(=O)O (centres unmarked) [ketorolac]
- dose dependence (two-way repeated measures ANOVA): dose-dependent effect
- duration of increased withdrawal threshold after injection: 30 to 60 min

From US20030181426A1, “Compositions and methods for treating pain using cyclooxygenase-1 inhibitors” (priority 2002, published 2003)
